# Measurements published in paper PMC10313662, “Structural insights into neurokinin 3 receptor activation by endogenous and analogue peptide agonists” (Cell Discovery, 2023).
# Protein sequences, listed by entry. Tags and fused reporters are not part of them.
# UniProt P29371, whole entry: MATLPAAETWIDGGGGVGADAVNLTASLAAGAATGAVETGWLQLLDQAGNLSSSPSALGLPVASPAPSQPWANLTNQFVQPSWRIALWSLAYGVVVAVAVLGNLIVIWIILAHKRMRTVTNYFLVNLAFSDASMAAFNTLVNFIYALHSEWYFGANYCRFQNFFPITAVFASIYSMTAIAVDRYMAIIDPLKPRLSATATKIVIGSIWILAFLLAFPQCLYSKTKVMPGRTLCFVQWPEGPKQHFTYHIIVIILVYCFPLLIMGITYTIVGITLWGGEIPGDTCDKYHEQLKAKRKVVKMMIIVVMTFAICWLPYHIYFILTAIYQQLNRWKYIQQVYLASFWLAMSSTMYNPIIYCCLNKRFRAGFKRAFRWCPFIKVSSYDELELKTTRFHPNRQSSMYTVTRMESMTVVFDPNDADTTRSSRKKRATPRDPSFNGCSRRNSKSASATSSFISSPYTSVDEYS
# Target: T1, wild-type NK3R (Homo sapiens, UniProt P29371)
# T1 construct: FLAG (DYKDDDDK); expressed in transfected cells; host or cells: HEK293T
# Experiment: IP-one accumulation assay, wild-type NK3R
# Assay type: cell-based
smiles,measurement,value
"CSCC[C@H](NC(=O)[C@H](CC(C)C)NC(=O)CNC(=O)[C@H](Cc1ccccc1)N(C)C(=O)[C@H](Cc1ccccc1)NC(=O)[C@H](CC(=O)O)NC(=O)CCC(=O)O)C(N)=O [senktide, suc-(Asp6, MePhe8) SP (6–11)]",Emax,100%
